# Rows were chosen to be rich in hits. Some 1.5% of all compounds tested hit in one or more screens of this group.
# PGC1a acetyl inh: PGC1a acetylation modulation, inhibitor mode | actives 0.17% (n = 350,000) | U2OS PGC1a acetylation, AlphaScreen anti-acetyl-lysine; with virally co-expressed GCN5 acetyltransferase | AID 651687 | inhibition, % at 15.6 µM;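 active = every replicate shows inhibition of at least 40%; inconclusive = mean inhibition at least 40% but some replicate below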;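 also: 0% = neutral control wells and 100% = positive control wells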
# Cneo AK release: causes C. neoformans cell lysis; actives 0.2% (n = 360,000); lysis activity, % at 15 µM; AID 651654; adenylate kinase release luminescence, 4 h; normalised: neutral wells 0, clomiphene wells 100;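 active = mean lysis activity across replicates of at least 80%, whatever share of replicates individually reach that level; inactive = mean lysis activity below 80%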
#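 Assay system: C. neoformans cells. Amount: yeast cell density of 5 × 10^6 cells/mL. Technique: AK luminescence. Buffer or medium: YPD. Times: static 4 h at 37 °C with compound, 1 h detection. Dosing: single-point compound dose. Read-out: lysis from increased AK signal.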
# Env fusion inh: inhibitors of HIV Env-mediated cell fusion | HeLa-JRFL Env/CEM21 cell fusion, luciferase | inhibition, % at 12.3 µM | actives 1.1% (n = 360,000);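 active = mean replicate inhibition score of at least 50 and every replicate individually at or above 50; inconclusive = only one of the two criteria met; inactive = mean below 50 and not all replicates reaching 50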;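 also: 0% = plate neutral controls and 100% = maraviroc near 300 nM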
# miR122 inh: miR-122 inhibition in Huh7 cells; Huh7 miR-122 Renilla luciferase sensor, 48 h; neutral wells = 0, positive control = 100; activation (reporter increase), % at 12.5 µM; actives 0.3% (n = 340,000); AID 602342;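 active = mean replicate activation score at least 90 and every replicate individually at or above 90; inconclusive = only one of the two criteria met; inactive = neither criterion met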;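 also: higher luciferase means less miR-122 activity so hits act as miR-122 inhibitors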
# Yeast UUG start: modulators of start codon recognition fidelity in yeast; AID 602363; activity score, % at 18.7 µM; S. cerevisiae UUG-firefly luciferase reporter, luminescence/redox ratio; actives 0.13% (n = 350,000);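 active = replicate mean at a twofold rise or more, about +100% in these data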;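 note: firefly luciferase made from a UUG start codon reports start codon fidelity; reporter light over untreated wells divided by growth signal over untreated wells; some hits fall short of that in this replicate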
# FN deposit inh: fibronectin deposition inhibition. inhibition, % at 12.6 µM. AH1F fibroblasts, Alexa488-fibronectin deposition fluorescence, overnight. actives 0.086% (n = 350,000). AID 743247;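 active = mean inhibition across replicates of 30% or more, regardless of how many single replicates reach that level; inconclusive = mean under 30% yet at least half of replicates reach 30%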;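 also: positive control wells lacked labelled fibronectin entirely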
#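 Material: AH1F fibroblasts assembling fluorescent fibronectin matrix; amount: 10000 AH1F cells/well; medium: DMEM, 2% serum; reagent: Alexa488-fibronectin, 24 nM final in well; dosing: single compound dose, delivered by pin transfer; incubation: 1 h adhesion, overnight exposure; detection: fluorescence after three HBSS washes, excitation 485 nm, emission 525 nm; measure: fibronectin deposition inhibition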
# An asterisk follows results filed as active; ? = inconclusive; . = no result given; [ ] = remark or other dose.
SMILES,PGC1a acetyl inh,Cneo AK release,Env fusion inh,miR122 inh,Yeast UUG start,FN deposit inh
CCOc1cc(S(=O)(=O)N(Cc2ccccc2)Cc2ccccc2)c(OCC)cc1-n1cnnn1,-47,-1,63*,-4,-1,.
CCOc1cc(S(=O)(=O)NCc2ccccc2)c(OCC)cc1-n1cnnn1,3,-1,-19,22,-8,-2
OC(CNc1nc(C(F)(F)F)nc2ccccc12)c1ccccc1 (stereo not given),8,0,58*,14,-13,2
O=C(O)CCNc1nc(C(F)(F)F)nc2ccccc12,-4,.,3,-3,.,-8
C[C@H]1CN([C@@H](C)CO)C(=O)c2cc(-c3cncnc3)cnc2O[C@H]1CN(C)C(=O)Nc1ccc2c(c1)OCO2,5,0,-12[16.7 µM],0[16.7 µM],-8,.
Clc1ccc(CSc2nnc(-c3ccncc3)o2)cc1,21,5,63*,6,-15,.
O=C(C[C@H]1CC[C@@H](NC(=O)c2cccc(F)c2)[C@H](CO)O1)NCc1ccc(Oc2ccccc2)cc1,-3,-4,69*[16.7 µM],.,-8,.
O=C(C[C@H]1CC[C@H](NC(=O)c2cccc(F)c2)[C@@H](CO)O1)NCc1ccc(Oc2ccccc2)cc1,1,-1,14[16.7 µM],.,-12,.
O=C(C[C@H]1CC[C@@H](NC(=O)c2cccc(F)c2)[C@@H](CO)O1)NCc1ccc(Oc2ccccc2)cc1,3,-5,71*[16.7 µM],.,-4,.
O=C(C[C@@H]1CC[C@H](NC(=O)c2ccc3c(c2)OCO3)[C@H](CO)O1)NCc1ccc(F)cc1,14,79,-10[16.7 µM],.,-3,.
O=C(C[C@H]1CC[C@@H](NC(=O)c2ccc3c(c2)OCO3)[C@@H](CO)O1)NCc1ccc(F)cc1,-6,94*,-86[16.7 µM],.,-1,.
Cc1ccc(S(=O)(=O)N2CCOCC2)cc1NC(=O)COC(=O)c1ccco1,-1,1,12,3,-12,5

# Only Env fusion inh (four entries from above):
compound	Env fusion inh
O=C(C[C@H]1CC[C@@H](NC(=O)c2cccc(F)c2)[C@@H](CO)O1)NCc1ccc(Oc2ccccc2)cc1	71*[16.7 µM]
CCOc1cc(S(=O)(=O)NCc2ccccc2)c(OCC)cc1-n1cnnn1	-19
CCOc1cc(S(=O)(=O)N(Cc2ccccc2)Cc2ccccc2)c(OCC)cc1-n1cnnn1	63*
C[C@H]1CN([C@@H](C)CO)C(=O)c2cc(-c3cncnc3)cnc2O[C@H]1CN(C)C(=O)Nc1ccc2c(c1)OCO2	-12[16.7 µM]

# New compounds follow:
SMILES,PGC1a acetyl inh,Cneo AK release,Env fusion inh,miR122 inh,Yeast UUG start,FN deposit inh
CC(=O)N(C[C@@H]1N[C@@H](CO)[C@@H]1c1ccc(-c2ccc(F)cc2)cc1)C(C)C,-6,3,.,-6[16.7 µM],2,4
Cc1cc(C)n(-c2ccccc2[N+](=O)[O-])n1,5,.,3,.,.,12
Cc1ccc(S(=O)(=O)N[C@H]2CC[C@H](CC(=O)NCc3ccccc3F)O[C@H]2CO)cc1,5,100*,8[16.7 µM],.,21,.
Cc1ccc(S(=O)(=O)N[C@H]2CC[C@@H](CCNC(=O)C3CCCC3)O[C@@H]2CO)cc1,0,-1,-1[16.7 µM],-1[16.7 µM],-3,6
Cc1ccc(S(=O)(=O)N[C@@H]2CC[C@H](CCNC(=O)C3CCCC3)O[C@@H]2CO)cc1,-4,86*,16[16.7 µM],1[16.7 µM],14,10
Cc1ccc(S(=O)(=O)N[C@@H]2CC[C@H](CC(=O)NCc3ccccc3F)O[C@@H]2CO)cc1,8,1,11[16.7 µM],.,-10,.
Cc1ccc(SCC(=O)Nc2cccc(C)c2)cc1,.,.,-4,.,.,-6
CN(c1ccc(OCC(=O)OCC(=O)Nc2ccc(F)cc2)cc1)S(=O)(=O)c1ccc(Cl)cc1,5,3,-26,0,10,-1
COc1ccc(NC(=O)COc2ccc(N(C)S(=O)(=O)c3ccc(Cl)cc3)cc2)cc1OC,-19,-4,57*,-17,-1,1
Cn1cnc(S(=O)(=O)N2CCN(c3ccc(Cl)cc3)CC2)c1,.,0,12,.,-24,5
Cn1cnc(S(=O)(=O)N2CCN(c3ccccc3)CC2)c1,-5,0,-3,4,-8,33*
CN(C)C(=O)c1ccc(-c2ccc([C@H]3[C@H]4CN(CCC(F)(F)F)CCCCN4[C@H]3CO)cc2)cc1,5,85*,.,54[16.7 µM],21,.
OC[C@H]1[C@H](c2ccc(-c3ccccc3)cc2)[C@H]2CN(CCC(F)(F)F)CCCCN21,2,2,.,1[16.7 µM],1,.
COc1ccccc1C#Cc1ccc([C@@H]2[C@H]3CN(CCC(F)(F)F)CCCCN3[C@H]2CO)cc1,-24,81*,.,-5[16.7 µM],23,.
CN(C)C(=O)c1ccc(-c2ccc([C@@H]3[C@@H](CO)N4CCCCN(CCC(F)(F)F)C[C@@H]34)cc2)cc1,-8,5,.,3[16.7 µM],-2,.
CCc1ccc(C(C#N)=CC=Cc2ccccc2)cc1,.,.,-334,.,.,17
N#C/C(=N\Nc1ccc(Cl)cc1)C(=O)c1ccccc1,-5,4,78*,12,-8,8
Cc1c(N/N=C(\C#N)C(=O)c2ccc(Cl)cc2)c(=O)n(-c2ccccc2)n1C,.,.,32,.,.,15
O=S(=O)(NC1CCCCC1Nc1ccc(Cl)cc1)c1ccccc1 (stereo not given),-21,-1,-4,2,-10,-6
C[C@H](CO)N1C[C@H](C)[C@@H](CN(C)S(=O)(=O)c2ccc(Cl)cc2)Oc2c(NS(=O)(=O)c3ccc(F)cc3)cccc2C1=O,-6,127*,-23[16.7 µM],12[16.7 µM],12,.
C[C@H](CO)N1C[C@H](C)[C@H](CN(C)S(=O)(=O)c2ccc(F)cc2)Oc2ccc(NS(=O)(=O)c3ccc(Cl)cc3)cc2C1=O,8,102*,?,35[16.7 µM],32,.
C[C@H]1CN([C@@H](C)CO)C(=O)c2cccc(NS(=O)(=O)c3ccc(F)cc3)c2O[C@@H]1CN(C)S(=O)(=O)c1ccc(Cl)cc1,-10,1,-42[16.7 µM],-3[16.7 µM],-5,.
C[C@@H]1CN([C@H](C)CO)C(=O)c2cc(NS(=O)(=O)c3ccc(Cl)cc3)ccc2O[C@H]1CN(C)S(=O)(=O)c1ccc(F)cc1,-4,101*,32[16.7 µM],20[16.7 µM],29,.
NC(=O)c1nsc(C(=O)N(Cc2ccco2)C(C(=O)NC2CCCC2)c2ccc(O)cc2)c1N (stereo not given),.,0,23,.,-3,-6

# Laid out differently: entries from further up.
SMILES | PGC1a acetyl inh | Cneo AK release | Env fusion inh | miR122 inh | Yeast UUG start | FN deposit inh
CCc1ccc(C(C#N)=CC=Cc2ccccc2)cc1 | . | . | -334 | . | . | 17
C[C@H](CO)N1C[C@H](C)[C@@H](CN(C)S(=O)(=O)c2ccc(Cl)cc2)Oc2c(NS(=O)(=O)c3ccc(F)cc3)cccc2C1=O | -6 | 127* | -23[16.7 µM] | 12[16.7 µM] | 12 | .

# The list goes on.
SMILES,PGC1a acetyl inh,Cneo AK release,Env fusion inh,miR122 inh,Yeast UUG start,FN deposit inh
CNC(=O)NC(=O)C(C)OC(=O)c1ccc(Cl)c(S(=O)(=O)Nc2ccc(F)cc2)c1 (stereo not given),-11,-3,0,215*,-10,-6
C=C1CCN([C@H](C(=O)OCc2cccc(C)c2)C(C)C)S(=O)(=O)c2ccccc21,.,-7,76*,-3,-13,-4
O=C(C1CC1)N1[C@H](CO)[C@@H]2c3ccccc3NC[C@@H]21,6,54,.,-10[16.7 µM],15,2
COc1ccc(S(=O)(=O)Nc2ccc3c(c2)C(=O)N([C@@H](C)CO)C[C@H](C)[C@@H](CN(C)Cc2ccc(Cl)c(Cl)c2)OCCCC[C@H](C)O3)cc1,17,47,59*[16.7 µM],-7[16.7 µM],56,.
C[C@@H]1CN([C@@H](C)CO)C(=O)c2cc(NS(=O)(=O)c3ccc(F)cc3)ccc2O[C@@H](C)CCCCO[C@H]1CN(C)Cc1ccc2c(c1)OCO2,-10,15,-18[16.7 µM],-9[16.7 µM],26,-2
C[C@H]1CN([C@@H](C)CO)C(=O)c2cc(NS(C)(=O)=O)ccc2O[C@@H]1CN(C)Cc1ccc(Cl)c(Cl)c1,-2,-4,62*[16.7 µM],-8[16.7 µM],-14,.

# High-throughput results as filed in PubChem.
